AlphaSeq binding of Ab-14 light chain variants to a spike HR2 peptide

Reference: Li et al. 2023, doi:10.1038/s41467-023-39022-2. File: FLAb, binding data.

Target: peptide PDVDLGDISGINAS, taken from heptad repeat 2 (HR2) of SARS-CoV-2 spike.

Each scFv is VH, the linker GGGGSGGGGSGGGGS, VL, as in the parent Ab-14, and differs from it in the CDRs of the light chain only.
VH: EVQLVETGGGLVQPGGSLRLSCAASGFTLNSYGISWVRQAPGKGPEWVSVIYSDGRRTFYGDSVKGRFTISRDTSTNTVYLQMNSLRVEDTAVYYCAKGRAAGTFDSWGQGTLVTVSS
VL: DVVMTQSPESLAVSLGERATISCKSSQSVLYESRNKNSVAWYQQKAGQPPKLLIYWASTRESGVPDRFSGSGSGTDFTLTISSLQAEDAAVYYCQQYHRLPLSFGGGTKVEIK

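The starting antibody came from a phage panning campaign against this peptide. This is the validation round: designs drawn from the data on random variants, tested in the same kind of assay. Group labels follow the data file (En: ensemble of fine-tuned language models; GP: Gaussian process model; HC: hill climbing; Gen: genetic algorithm; Gibbs: Gibbs sampling; a sequence that several methods proposed may carry one label only). The assay is AlphaSeq: two haploid yeast populations carry antibody and antigen on their surface. Pairs that bind mate more often; barcode pairs of the diploids are counted by sequencing. Each replicate has its own calibration line, from reference interactions of the BCL2 family. Each pool was mated in six replicate cultures.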

Variants are written as CDR1, CDR2 and CDR3 of the light chain (limits as in the source). Parent: KSSQSVLYESRNKNSVA, WASTRES, QQYHRLPLS. Variants here have more than six changes. The read-out is the apparent dissociation constant on a log10 scale (nM): the lower, the stronger. Replicates are averaged; those with no signal do not enter the mean. An entry "nd" has no value in the source: the pair was not observed among the diploids in that replicate. This suggests poor binding but is not conclusive. Order: sorted from the lowest average up, undetected variants last. The parent sequence was in this pool as ten entries: three were never detected, three once, and four in most replicates, with averages from 0.34 to 2.37. Three control strains display no target. For all light chain designs, 4% of the pairings with them gave a signal, with a median of 2.64 and one signal in twenty below 1.59, so weak values seen in few replicates may be background. For each scFv, signals with the empty controls are counted beside the result, with their mean in brackets. Values of this round are not directly comparable with the first-round values of the same sequences. The authors' rule: three or more of the six replicates give a measured affinity, fewer mean a poor binder.

| CDR-L1 | CDR-L2 | CDR-L3 | group | replicates, log10 nM | mean, log10 nM | control signals |
|---|---|---|---|---|---|---|
| ILQQSMWYESRNKNSVA | DASVRES | QQYHRLPLS | GP_Gibbs | -0.19 / -0.24 / -0.18 / -0.15 / -0.43 / -0.13 | -0.22 | 0 of 18 |
| KLSQSHLYESRNSNNVA | EASYRMD | QQYHRLPLS | GP_Gibbs | -0.03 / -0.21 / -0.37 / -0.14 / -0.27 / -0.11 | -0.19 | 0 of 18 |
| KLGQMTGIQSHNKNSLA | DANRRES | QQYHRLPLS | En_HC | 0.19 / 0.02 / 0.13 / -0.06 / -0.07 / 0.22 | 0.07 | 1 of 18 (2.95) |
| ILSDTVMQGSYYKNSVA | QESTRAD | QQYHRLPLS | En_HC | 0.12 / 0.11 / 0.39 / -0.07 / -0.03 / 0.40 | 0.15 | 0 of 18 |
| KITATMRFEQKQSNNIA | EVTQRSK | QQYYRLPLA | En_Gen | 0.41 / 0.31 / 0.19 / -0.04 / 0.37 / 0.39 | 0.27 | 0 of 18 |
| HTQHLGFGDPAHWNSIA | EVSQVCS | QQYMRLPLT | En_Gibbs | 0.37 / 0.75 / 0.14 / 0.31 / 0.47 / 0.43 | 0.41 | 0 of 18 |
| MFSQSVMYGSFMRNSVA | QTSTREE | QQYDRLPLS | En_HC | 0.48 / 0.48 / 0.40 / 0.35 / 0.30 / 0.50 | 0.42 | 1 of 18 (2.25) |
| KVNGLMNIEQMNSKSVA | QSQTREN | QQYHRLPLS | En_HC | 0.62 / 0.42 / 0.49 / 0.14 / 0.38 / 0.52 | 0.43 | 2 of 18 (3.27) |
| KISAVMENQLKNRNSVA | ELVTRMN | QQYNRLPLS | En_Gen | 1.31 / 0.37 / 0.55 / 0.13 / 0.07 / 0.46 | 0.48 | 0 of 18 |
| HFAKQLTSLANSKQNVA | NASTVMV | QHYNRLPLS | En_Gibbs | nd / 0.47 / nd / 0.60 / nd / nd | 0.53 | 0 of 18 |
| KVSQSMGYESRNQNSVA | EASHRES | QDYHRLPLW | GP_Gibbs | 0.83 / 0.83 / 0.38 / 0.45 / 0.46 / 0.50 | 0.58 | 0 of 18 |
| SLDSDVGYDTHNDKNIA | AETRVDR | QQYAHLPLS | En_Gibbs | 0.49 / 0.38 / 0.56 / 0.74 / 0.79 / 0.59 | 0.59 | 0 of 18 |
| KVSQLVNFLGKNKNSVA | QMSTRES | QQYDRLPLS | En_HC | 1.02 / 0.56 / 0.54 / 0.43 / 0.55 / 0.55 | 0.61 | 0 of 18 |
| WLSMSVEQQSRNKNAVA | SASTRES | QQYHRLPLS | GP_Gibbs | 0.78 / 0.84 / 0.44 / 0.52 / 0.43 / 0.81 | 0.64 | 2 of 18 (2.76) |
| KLSLIMRLESKNKSNIA | EVNERSE | QQYDRLPLS | En_Gen | 0.83 / 0.68 / 0.41 / 0.61 / 0.69 / 0.96 | 0.70 | 1 of 18 (2.91) |
| TISQSAQMESHNKDSVA | DLNVRGS | QQYDRLPLS | En_HC | 0.75 / 1.29 / 0.61 / 0.49 / 0.92 / 0.71 | 0.80 | 1 of 18 (2.40) |
| MFSQLTYTGSRARNAVA | QASTREN | QQYHHLPLA | En_HC | 1.55 / 0.71 / 0.81 / 0.49 / 1.18 / 0.41 | 0.86 | 0 of 18 |
| MLSQMTGLGMKASNSVA | QANMRFD | QQYHRLPLI | En_Gen | 0.62 / 0.79 / 1.14 / 0.69 / 0.94 / 1.19 | 0.90 | 1 of 18 (2.23) |
| MISQVMNTLTRNGNNVA | DLQEREK | QQYFRLPLS | En_Gen | 1.34 / 1.32 / 0.57 / 0.66 / 1.17 / 0.78 | 0.97 | 0 of 18 |
| NISESMYYQSRIKNNIA | EMSTRER | QHYHRLPLS | En_HC | 1.14 / 0.89 / 0.64 / 1.00 / 0.91 / 1.34 | 0.99 | 1 of 18 (1.70) |
| MLSLNLHDMDANINNVA | EMNKLTA | QDYHRLPLA | En_Gibbs | 1.17 / 0.87 / 0.97 / 0.71 / 1.19 / 1.16 | 1.01 | 0 of 18 |
| KMETYSQDNRLDISAIA | EAQTIYQ | QQYARLPLS | En_Gibbs | 1.45 / 1.50 / 0.97 / 0.92 / 0.81 / 0.85 | 1.09 | 0 of 18 |
| TISQSLLMQTSHKNNVA | GEQTRYS | QQYHRLPLS | En_HC | 0.48 / 1.31 / 1.29 / 1.19 / 0.95 / 1.58 | 1.13 | 0 of 18 |
| MLGDVAHGLSRKENSVA | DNDTRNS | QQYDRLPLS | En_Gen | 1.61 / 1.22 / 0.69 / 1.03 / 1.57 / 0.70 | 1.14 | 1 of 18 (2.78) |
| MISQVMNTLTRTGNNVA | DLAEREV | QQYFRLPLS | En_Gen | 1.56 / 0.88 / 1.93 / 1.34 / 1.10 / 0.81 | 1.27 | 0 of 18 |
| QFSITNNQGHAMEHNIA | EGTYAEE | QQYARLPLQ | En_Gibbs | 1.55 / 1.31 / 0.50 / 0.95 / 1.67 / 1.67 | 1.27 | 0 of 18 |
| KLQQFQEYESRWKNSVA | HASTRLS | QQYHRLPLS | GP_Gibbs | 1.29 / 1.23 / 1.52 / 1.18 / 1.47 / 1.49 | 1.36 | 4 of 18 (2.92) |
| KIDENTNHGANRDNNIA | EARTVGA | QQYFRLPII | En_Gibbs | 1.80 / 1.40 / 1.16 / 1.45 / 1.78 / 1.70 | 1.55 | 1 of 18 (3.02) |
| TISQMTFVESKNRNNVA | EMTTREN | QDYDRLPLS | En_HC | 2.00 / 1.00 / 1.81 / 1.65 / 1.68 / 1.38 | 1.58 | 0 of 18 |
| KISYQYRFEQLSKSNIA | EVVTRLK | QQYHRLPLS | En_HC | nd / 1.54 / nd / 2.12 / nd / 1.41 | 1.69 | 0 of 18 |
| KLRNSWNGWYNDWASIA | EANMYAP | QQYQRLPFA | En_Gibbs | 1.90 / 1.26 / 1.72 / 1.34 / 2.25 / 2.21 | 1.78 | 1 of 18 (3.13) |
| MISQVLNSLTHTGNNVA | DLQERED | QQYFRLPLS | En_Gen | nd / nd / 1.57 / nd / 2.32 / nd | 1.95 | 0 of 18 |
| KFSQSWLYESRVKNNVA | NASQRES | QMYHRLPLS | GP_Gibbs | nd / 2.26 / 1.38 / 2.46 / nd / nd | 2.03 | 0 of 18 |
| IVSQLMLWGMHAKNSIA | EAEKRIN | QQYHHLPLI | En_Gen | 3.23 / 1.32 / 2.20 / 2.25 / 1.31 / 2.56 | 2.14 | 0 of 18 |
| MLGETYEGEKRQRNSVA | HNSMRAN | QQYDRLPLA | En_Gen | nd / nd / 1.58 / nd / 2.75 / nd | 2.16 | 0 of 18 |
| KVSGFMRGLMERKDSIA | DNETRQS | QQYDRLPLS | En_Gen | nd / 1.95 / nd / 2.18 / 2.70 / nd | 2.27 | 1 of 18 (2.55) |
| KLRHHNLDFYEFENNIA | GESMRAV | QQYYRLPLN | En_Gibbs | nd / nd / nd / nd / nd / nd | nd | 0 of 18 |
| YLSMMQQMLGDLMHNVA | DANVATM | QDYFRLPLM | En_Gibbs | nd / nd / nd / nd / nd / nd | nd | 0 of 18 |
| KLRREADGWNRNEWNIA | DADYRGA | QQYSHLPLC | En_Gibbs | nd / nd / nd / nd / nd / nd | nd | 2 of 18 (2.48) |

The closing 5 entries, repeated:

| CDR-L1 | CDR-L2 | CDR-L3 | group | replicates, log10 nM | mean, log10 nM | control signals |
|---|---|---|---|---|---|---|
| MLGETYEGEKRQRNSVA | HNSMRAN | QQYDRLPLA | En_Gen | nd / nd / 1.58 / nd / 2.75 / nd | 2.16 | 0 of 18 |
| KVSGFMRGLMERKDSIA | DNETRQS | QQYDRLPLS | En_Gen | nd / 1.95 / nd / 2.18 / 2.70 / nd | 2.27 | 1 of 18 (2.55) |
| KLRHHNLDFYEFENNIA | GESMRAV | QQYYRLPLN | En_Gibbs | nd / nd / nd / nd / nd / nd | nd | 0 of 18 |
| YLSMMQQMLGDLMHNVA | DANVATM | QDYFRLPLM | En_Gibbs | nd / nd / nd / nd / nd / nd | nd | 0 of 18 |
| KLRREADGWNRNEWNIA | DADYRGA | QQYSHLPLC | En_Gibbs | nd / nd / nd / nd / nd / nd | nd | 2 of 18 (2.48) |